Key:
[1] = biological target: GluN1/N2A (Rattus norvegicus, UniProt P35439); test: Two-electrode voltage-clamp recordings, Xenopus oocytes expressing GluN1/N2A; assay type: cell-based; details: glycine co-applied with 100 μM glutamate
[2] = biological target: GluN1(A714L)/N2A (Rattus norvegicus, UniProt P35439, A714L)
[3] = biological target: GluN1(V689L)/N2A (Rattus norvegicus, UniProt P35439, V689L)
[4] = biological target: GluN1(R523A)/N2A (Rattus norvegicus, UniProt P35439, R523A); details: glycine co-applied with 100 μM glutamate
[5] = biological target: GluN1(F484A)/N2A (Rattus norvegicus, UniProt P35439, F484A); details: F484A mutation vs GluN1/N2A
[6] = biological target: GluN1(T518L)/N2A (Rattus norvegicus, UniProt P35439, T518L)
[7] = biological target: GluN1/N3A receptors (Rattus norvegicus, UniProt P35439+Q9R1M7); details: negligible current responses
[8] = glycine co-applied with 100 μM glutamate

Sequences of proteins named here, by UniProt entry; tags and fusion partners are left off. Residues count along the entry.
UniProt Q9R1M7, 24-1115 isoform Q9R1M7-2 limits assumed: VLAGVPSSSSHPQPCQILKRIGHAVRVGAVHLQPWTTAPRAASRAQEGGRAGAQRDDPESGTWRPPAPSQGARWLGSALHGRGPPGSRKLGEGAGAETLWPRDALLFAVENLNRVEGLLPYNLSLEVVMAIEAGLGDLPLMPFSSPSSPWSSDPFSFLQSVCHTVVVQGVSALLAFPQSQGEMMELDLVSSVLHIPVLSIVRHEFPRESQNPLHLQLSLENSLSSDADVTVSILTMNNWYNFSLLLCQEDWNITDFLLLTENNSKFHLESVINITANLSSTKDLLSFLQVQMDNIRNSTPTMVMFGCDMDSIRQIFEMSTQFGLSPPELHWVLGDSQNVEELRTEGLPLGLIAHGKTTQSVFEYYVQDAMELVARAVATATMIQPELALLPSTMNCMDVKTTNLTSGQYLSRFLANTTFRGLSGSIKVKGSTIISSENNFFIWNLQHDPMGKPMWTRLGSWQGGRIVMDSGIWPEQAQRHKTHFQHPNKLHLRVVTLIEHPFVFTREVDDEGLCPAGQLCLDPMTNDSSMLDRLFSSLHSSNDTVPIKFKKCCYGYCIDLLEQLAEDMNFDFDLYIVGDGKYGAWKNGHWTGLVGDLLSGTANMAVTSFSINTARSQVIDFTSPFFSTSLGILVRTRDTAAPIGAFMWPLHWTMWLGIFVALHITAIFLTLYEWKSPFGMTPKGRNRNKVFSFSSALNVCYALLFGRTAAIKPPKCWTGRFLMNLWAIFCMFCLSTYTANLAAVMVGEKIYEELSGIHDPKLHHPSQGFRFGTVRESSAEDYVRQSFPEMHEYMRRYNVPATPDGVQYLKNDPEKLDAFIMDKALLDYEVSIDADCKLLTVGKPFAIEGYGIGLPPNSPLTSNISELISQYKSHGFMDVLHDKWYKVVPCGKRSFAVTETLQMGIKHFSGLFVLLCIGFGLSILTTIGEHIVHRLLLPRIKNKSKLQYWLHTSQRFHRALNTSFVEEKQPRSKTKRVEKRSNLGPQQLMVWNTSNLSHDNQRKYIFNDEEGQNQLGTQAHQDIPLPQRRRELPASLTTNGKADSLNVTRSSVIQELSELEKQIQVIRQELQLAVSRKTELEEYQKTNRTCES

SMILES: NCC(=O)O [glycine]
- Hill coefficient (nH) [1]: 1.48
- increase in glycine EC50 ([2]; A714L mutation vs GluN1/N2A): 25 fold
- Hill coefficient (nH) [2, 8]: 1.28
- increase in glycine EC50 ([3]; V689L mutation vs GluN1/N2A): 60 fold
- Hill coefficient (nH) [3, 8]: 1.24
- Hill coefficient (nH) [4]: 1.56
- increase in glycine EC50 [5]: 3000 fold
- increase in glycine EC50 ([6]; T518L mutation vs GluN1/N2A): 6000 fold
- Hill coefficient (nH) [6, 8]: 1.68
- current responses upon glycine application [7]: < 10 nA
